In article PMC3880643 (Journal of medicinal chemistry, 2013) one finds IC50 data, which are given here for three molecules.

Experiment [1] relates to H3K9me2 levels in MDA-MB-231 cells. Briefly: cells. As to conditions: Homo sapiens, MDA-MB-231, 48 h, read-out: H3K9me2 IC50.
Experiment [2] deals with H3K9me2 levels in PANC-1 cells. Nature of the experiment: H3K9me2 in-cell western assay. It is filed as cell-based. The note with it: Homo sapiens, PANC-1, 48 h, read-out: H3K9me2 IC50.

Structures are written as SMILES. A value given as a limit tells only on which side of the number the result lay.

A word on the IC50: it is the midpoint of a concentration-inhibition curve. Turning to `COc1cc2c(NC3CCN(C(C)C)CC3)nc(C3CCCCC3)nc2cc1OCCCN1CCCC1` [Compound 5, reference compound], the IC50 in experiment [1] is 81 nM.

In the case of `COc1cc2c(NC3CCN(C(C)C)CC3)nc(N3CCCCCC3)nc2cc1OCCCN1CCCC1` [Compound 17], the IC50 in experiment [1] is 100 nM.

Consider `COc1cc2c(NC3CCN(C(C)C)CC3)nc(N3CCC(F)(F)CC3)nc2cc1OCCCN1CCCC1` [Compound 7, 2-(4,4-Difluoropiperidin-1-yl)-N-(1-isopropylpiperidin-4-yl)-6-methoxy-7-(3-(pyrrolidin-1-yl)propoxy)quinazolin-4-amine], for which the IC50 in experiment [2] is under 150 nM.
